# Test results taken from US11420959B2, “DACOS type NNRTIS amino acid ester derivative, preparation method thereof, pharmaceutical composition, and application thereof” (YUNNAN UNIVERSITY, priority 2018, dated 2022).
# System: HIV-1IIIB
# Assay: Syncytium inhibition experiment, C8166 cells infected with HIV-1IIIB
# Type: cell-based
# Conditions: Human immunodeficiency virus 1, 72 h, syncytium count, three days
# Protocol: C8166 cells infected with HIV-1 were used for determining the anti-HIV biological activity at the cellular level. The specific method was described below.
# Syncytium inhibition experiment: 100 μL of C8166 cell suspension (4×10^5/mL) was inoculated into each well of a 96-well cell culture plate containing 5-fold serial dilutions of the compounds, followed by addition of HIV-1IIIB diluted supernatant (MOI=0.04). Three replicate wells were set for each serial concentration. […] The cells were incubated at 37° C. in a 5% CO2 incubator for three days. The number of the syncytia was counted in five non-overlapping fields of view by using an inverted microscope (100×). […] Calculation formula: cytopathic inhibition rate (%)=(1−number of syncytia in experimental wells/number of syncytia in control well)×100%.
compound,measurement,value
"Cc1cn([C@H]2C[C@H](N=[N+]=[N-])[C@@H](CO)O2)c(=O)[nH]c1=O [AZT, Zidovudine, reference compound]",EC50,49 nM
